# According to US7135457B1, “Random peptides that bind to gastro-intestinal tract (GIT) transport receptors and related methods” (Cytogen Corporation, priority 1997, dated 2006):
# Details: text summary of hSI, D2H, HPT1, hPEPT1 pools
# Protocol: In particular, phages selected in vitro to each receptor or binding site located in the GIT were amplified in E. coli, PEG-precipitated, resuspended in TBS and the titer of each phage sample was determined by plaquing in E. coli as described above. […] Using the in situ loop model described above, 0.5 ml of preselected phage library solution was injected into the tied-off portion of the duodenum/jejunum. Blood was collected into heparinized tubes from the portal vein at 0, 15, 30, 45 and 60 minutes. A blood sample was taken from the systemic circulation at the end of the experiment. Similarly, the portion of the duodenum/jejunum used for phage injection was taken at the end of the experiment.
# Thirty microliters of the collected portal blood (neat and 10^−2, 10^−4, 10^−6 dilutions) was added to 30 μl E. coli K91Kan cells (overnight culture) and incubated at 37° C. for 10 min. Subsequently, 3 ml of top agarose was added and the samples were plated for plaques. One hundred microliters of the collected portal blood was added to 100 μl of E. coli K91Kan. Five milliliters of LB medium was then added and the samples were incubated at 37° C. overnight in a rotating microbial incubator. The E. coli was removed by centrifugation and the amplified phage supernatant samples were either titered directly or were PEG-precipitated, resuspended in TBS and titered. Following titration of the amplified phage, samples containing phage from each set of animals were combined, adjusting the titer of each sample to the same titer, and were plated for plaques on LB agar plates (22 cm^2 square plates). Either 12,000 or 24,000 phage were plated for plaques.
# Thirty microliters of the collected systemic blood (neat and 10^−2, 10^−4, 10^−6 dilutions) was added to E. coli K91Kan cells, incubated at 37° C. for 10 min. Three ml of top agarose was then added and the samples were plated for plaques. One hundred microliters of the collected systemic blood was added to 100 μl of E. coli K91Kan, incubated at 37° C. for 10 min. Five milliliters of LB medium was then added and the samples were incubated at 37° C. overnight in a rotating microbial incubator. The E. coli was removed by centrifugation and the amplified phage supernatant samples were either titered directly or were PEG-precipitated, resuspended in TBS and titered. Following titration of the amplified phage, samples containing phage from each set of animals were combined, adjusting the titer of each sample to the same titer, and were plated for plaques on LB agar plates (22 cm^2 square plates). Either 12,000 or 24,000 phage were plated for plaques. The intestinal tissue portion used in each closed loop was excised. […] Alternatively, the tissue (in PBS supplemented with protease inhibitors) was homogenized in an Ultra Thorex homogenizer, washed 3 times in PBS containing protease inhibitors and resuspended in PBS containing protease inhibitors (Int-G samples). In each case, serial dilutions (neat and 10^−2, 10^−4, 10^−6 dilutions) of the tissue homogenate was titered in E. coli.
# The phage amplified from the portal blood, systemic blood and intestinal tissue was plated for plaques. […] The filters were air-dried, and the DNA was cross-linked to the filter (UV crosslinking: 2 min, high setting). The filters were incubated in pre-hybridization buffer (6×SSC, 5×Denhardt's solution, 0.1% SDS, 20 μg/ml yeast tRNA) at 40° C.-45° C. for at least 60 min.
# Synthetic oligonucleotides, (22-mers), complimentary to regions coding for the receptor or binding sites used to create the preselected phage library, were synthesized (see Table 14 below).
# The oligonucleotides (5 pmol) were 5′ end labelled with ^32P-ATP and T4 polynucleotide kinase and approximately 2.5 pmol of labelled oligonucleotide was used in hybridization studies. […] The filters were air-dried and exposed for autoradiography for 15 hours, 24 hours or 72 hours.
# Hybridization data for pools from each receptor group of rats was compiled.
row,Sequence,transport from the GIT closed loop into the portal circulation (in words)
1,RGAADQRRGWSENLGLPRVGWDAIAHNSYTFTSRRPRPP [Phage SNi38],transported
2,RTTTAKGCLLGSFGVLSGCSFTPTSPPPHLGYPPHSVN [Phage SNiAX6],not transported
3,RVGQCTDSDVRRPWARSCAHQGCGAGTRNSHGCITRPLRQASAH [Phage SNi10],transported
4,SDSDGDHYGLRGGVRCSLRDRGCGLALSTVHAGPPSFYPKLSSP [Phage SNiAX2],not transported
5,SGGEVSSWGRVNDLCARVSWTGCGTARSARTDNKGFLPKHSSLR [Phage SNi45],not transported
6,SHSGGMNRAYGDVFRELRDRWNATSHHTRPTPQLPRGPN [Phage SNi28],not transported
7,SPCGGSWGRFMQGGLFGGRTDGCGAHRNRTSASLEPPSSDY [Phage SNi34],transported
8,SPKLSSVGVMTKVTELPTEGPNAISIPISATLGPRNPLR [Phage SNiAX8],not transported

# Same assay, conditions: text summary of the four pools
row,Sequence,presence in the intestine samples or fractions (in words)
1,RVGQCTDSDVRRPWARSCAHQGCGAGTRNSHGCITRPLRQASAH [Phage SNi10],found in the intestine samples or fractions
